Measurements from ChEMBL document CHEMBL5705894, “SB1518, a novel macrocyclic pyrimidine-based JAK2 inhibitor for the treatment of myeloid and lymphoid malignancies” (Leukemia, 2011).

Test system: SET-2
Assay: Antiproliferative activity against human SET2 cells harboring JAK2 V617F mutant assessed as inhibition of cell viability incubated for 48 hrs by CellTiterGlo assay
Type: functional, cell-based
Details: SET-2, 48 h

## C1=N/C2=N/c3ccc(OCCN4CCCC4)c(c3)COC/C=C/COCc3cccc(c3)C(=C1)N2 [PACRITINIB]
  IC50: 217 nM
